The values that follow come from patent EP4631940A1, “COMPOUND TARGETING PAN-KRAS PROTEIN DEGRADATION AGENT AND USE THEREOF” (Betta Pharmaceuticals Co., Ltd., priority 2022, dated 2024).

In one assay the test system is AGS. As to the kind of experiment: Cell proliferation experiment (CellTiter-Glo). Format: cell-based. The following applies: read-out: IC50(nM) AGS, KRAS mutation type G12D, 96 h incubation.
The next assay addresses KRAS G12D (Homo sapiens, UniProt P01116, G12D). Description: In-Cell Western Blotting degradation experiment in AGS cell line. The following applies: KRAS^G12D vs GAPDH.

Some compounds may have been tested in ways that are not shown here.

One may read the IC50 as the concentration at which inhibition is half-maximal. In the case of “(2S,4R)-1-((S)-2-(4-(1-((1-((1-(((7-(8-ethyl-7-fluoro-3-hydroxynaphthalen-1-yl)-8-fluoro-4-((R)-3-hydroxy-3-methylpiperidin-1-yl)pyrido[4,3-d]pyrimidin-2-yl)oxy)methyl)cyclopropyl)methyl) piperidin-4-yl)methyl)piperidin-4-yl)-1H-1,2,3-triazol-1-yl)-3-methylbutanoyl)-4-hydroxy-N-((S )-1-(4-(4-methylthiazol-5-yl)phenyl)ethyl)pyrrolidine-2-carboxamide”, the IC50 in the assay on AGS worked out at 17 nM.

As usually defined, the DC50 is the midpoint of the concentration-degradation curve. A high value points to a less potent degrader. “(2S,4R)-1-((S)-2-(4-((1-((1-(((7-(8-ethyl-7-fluoro-3-hydroxynaphthalen-1-yl)-8-fluoro-4-((R)-3-hydroxy-3-methylpiperidin-1-yl)pyrido[4,3-d]pyrimidin-2-yl)oxy)methyl)cyclopropyl)methyl)pi peridin-4-yl)azetidin-3-yl)-1H-1,2,3-triazol-1-yl)-3-methylbutanoyl)-4-hydroxy-N-((S)-1-(4-(4-methylthiazol-5-yl)phenyl)ethyl)pyrrolidine-2-carboxamide”: the IC50 in the assay on AGS was found to be 33 nM. Further, at KRAS G12D, the half-maximal degradation concentration (DC50) is 84 nM and the “Dmax (%)” value is on record as 95%.
